The source of these data is patent US20250170120A1, “ALLOSTERIC STING MODULATORS AND METHODS OF USE” (THE BOARD OF REGENTS OF THE UNIVERSITY OF TEXAS SYSTEM, priority 2022, published 2025).

The chains behind the UniProt entries cited, without tags or fusion partners. Residues count along the entry.
UniProt Q86WV6, whole entry H232R: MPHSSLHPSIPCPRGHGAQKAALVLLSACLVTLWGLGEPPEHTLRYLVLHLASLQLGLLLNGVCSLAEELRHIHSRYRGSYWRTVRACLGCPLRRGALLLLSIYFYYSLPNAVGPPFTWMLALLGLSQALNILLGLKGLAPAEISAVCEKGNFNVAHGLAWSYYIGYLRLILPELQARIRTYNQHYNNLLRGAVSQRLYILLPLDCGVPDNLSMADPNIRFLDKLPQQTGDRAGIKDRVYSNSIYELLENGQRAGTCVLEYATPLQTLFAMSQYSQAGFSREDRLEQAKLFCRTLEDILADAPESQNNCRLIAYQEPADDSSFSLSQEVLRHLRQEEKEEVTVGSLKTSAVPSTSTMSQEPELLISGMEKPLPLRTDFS
UniProt Q86WV6, 1-343 H232R limits assumed: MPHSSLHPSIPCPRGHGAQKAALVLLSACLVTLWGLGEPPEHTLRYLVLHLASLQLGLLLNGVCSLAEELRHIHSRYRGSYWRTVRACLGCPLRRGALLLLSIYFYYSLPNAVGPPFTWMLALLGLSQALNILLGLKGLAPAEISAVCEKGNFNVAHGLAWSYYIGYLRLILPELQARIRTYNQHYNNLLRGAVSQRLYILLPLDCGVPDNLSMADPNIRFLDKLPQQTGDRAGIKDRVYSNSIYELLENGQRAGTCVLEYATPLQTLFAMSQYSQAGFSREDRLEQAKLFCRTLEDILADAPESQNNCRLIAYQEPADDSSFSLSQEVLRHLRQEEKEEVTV
UniProt Q86WV6, whole entry R71H/G230A/H232R/R293Q: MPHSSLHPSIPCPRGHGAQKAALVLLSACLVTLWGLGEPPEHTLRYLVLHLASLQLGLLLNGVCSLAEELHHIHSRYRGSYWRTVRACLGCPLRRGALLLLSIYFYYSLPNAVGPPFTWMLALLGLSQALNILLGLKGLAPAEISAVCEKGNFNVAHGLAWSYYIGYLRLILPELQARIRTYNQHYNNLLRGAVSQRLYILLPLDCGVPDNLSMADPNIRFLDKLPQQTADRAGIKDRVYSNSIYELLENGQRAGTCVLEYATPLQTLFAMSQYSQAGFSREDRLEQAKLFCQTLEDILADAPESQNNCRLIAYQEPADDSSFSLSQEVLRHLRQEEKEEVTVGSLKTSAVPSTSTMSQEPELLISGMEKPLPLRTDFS
UniProt Q3TBT3, whole entry: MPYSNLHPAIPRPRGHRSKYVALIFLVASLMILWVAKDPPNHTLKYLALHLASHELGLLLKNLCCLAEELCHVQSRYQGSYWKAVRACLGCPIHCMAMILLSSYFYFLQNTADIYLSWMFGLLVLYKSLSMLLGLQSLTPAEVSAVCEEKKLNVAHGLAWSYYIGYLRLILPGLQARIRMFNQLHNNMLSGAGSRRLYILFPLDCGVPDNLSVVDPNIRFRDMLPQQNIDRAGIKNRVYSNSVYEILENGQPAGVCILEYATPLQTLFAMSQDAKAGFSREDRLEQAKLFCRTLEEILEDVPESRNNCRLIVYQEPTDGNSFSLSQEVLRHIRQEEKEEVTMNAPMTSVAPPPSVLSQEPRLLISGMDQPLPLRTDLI

Assay [1] has as its target T1, human STING (Homo sapiens, UniProt Q86WV6, H232R). Put plainly: Native gel analysis of oligomerization of purified human STING. The assay is classed as biochemical. Particulars: detergent solution, either one alone.
A further assay deals with STING (Homo sapiens, UniProt Q86WV6, G230A/H232R/R293Q/R71H). Kind of assay: Induction of interferon by compound alone in THP-1 cells (agonist activity). The note with it: increasing concentrations of compound.
In assay [2] the target is T1, human STING. Put plainly: Cryo-EM structure of human STING in complex with compound.
Assay [3] concerns the target T2, human STING (Homo sapiens, UniProt Q86WV6). Particulars: cited from earlier work.
Assay [4] addresses T2, human STING. Kind of assay: Western blot of phosphorylation of STING, TBK1 and IRF3 in HEK293T cells transfected with human STING. The assay is classed as cell-based. Particulars: C53 and cGAMP together vs either alone. The protocol:
Western blot analyses of phosphorylation of STING, TBK1 and IRF3. The coding sequence for full-length human STING fused with a C-terminal FLAG-tag was cloned into the pcDNA3.1A(+) vector (Invitrogen). Mutations were introduced by PCR-based mutagenesis. Plasmids were transfected with 500 ng into HEK293T cells in 6-well plates and cultured for additional 24 hours. […] Human STING protein was detected by anti-FLAG primary antibody (Bimake, Cat #A5712; 3000× dilution) and anti-Mouse IgG HRP-linked secondary antibody (Cell Signaling Technology, Cat #7076S; 3000× dilution). Phosphorylated STING was detected by Rabbit anti-phospho-STING (S366) antibody (Cell Signaling Technology, Cat #19781S; 1000× dilution) and anti-Rabbit IgG HRP-linked secondary antibody (Cell Signaling Technology, Cat #7074S; 3000× dilution). TBK1 was detected by Mouse anti-TBK1/NAK antibody (Cell Signaling Technology, Cat #51872S; 1000× dilution). Phosphorylated TBK1 was detected by Rabbit anti-phospho-TBK1/NAK antibody (Cell Signaling Technology, Cat #5483S; 1000× dilution). IRF3 was detected by Mouse anti-IRF3 antibody (Abcam, Cat #ab50772; 100× dilution) and phosphorylated IRF was detected by Rabbit anti-phospho-IRF3 (S386) (Abcam, Cat #ab76493; 1000× dilution).

The next assay concerns the target mouse STING (Mus musculus, UniProt Q3TBT3). Particulars: cited from earlier work.

Regarding `CC1(C)C(=O)N(Cc2c(F)cccc2Cl)c2cc(C(=O)NCc3c(F)cc(F)cc3F)ccc21`, the “Oligomerization of purified human STING, agonist alone” value at human STING [1] is given as “failed to do so”. In addition, at STING, the “Relative induction of interferon production by compound alone” value is recorded as “enhanced in a dose-dependent manner”. The “Binding site in human STING (cryo-EM)” value on human STING [2] is on record as “bind to the cryptic site in human STING-TMD through an induced-fit mechanism”. Moreover, at human STING [3], the “Activation of human STING” value is on record as “activated human STING”. The “Phosphorylation of STING-WT, TBK1 and IRF3” value on human STING [4] is “higher levels of phosphorylation of STING-WT, TBK1 and IRF3 than either agonist alone”. Besides, on mouse STING, the “Activation of mouse STING” value is “not mouse STING”.
